Tested on: MyoF system (lung fibroblasts)
Conditions: 10 μM (top concentration)

In the case of AZD4547 [reference compound], the “cytotoxicity in the MyoF system” value is reported as “cytotoxic”.

From paper PMC10811212 (Frontiers in Oncology, 2024)
